Measured values reported in US10976307B2, “Whole cell assays and methods” (Celcuity Inc., priority 2012, dated 2021).

Assays:
Format in all cases: cell-based, human
[1] = system: Patient B1 HER2 overexpressing breast cancer cells; assay: CELx Pathway Shutdown test, impedance biosensor CReMS, EGF stimulation; details: drug added two hours before EGF pathway stimulation, compared to stimulation with no drug
Protocol: A CELx Pathway Shutdown test was performed using cells from two HER2 overexpressing breast cancer patients (Patient B1 and B4), two drugs (Lapatinib and Trastuzumab) that are indicated for HER2 positive breast cancers, and human epidermal growth factor (EGF). The physiologic change of the B1 and B4 cells during the test was measured with an impedance biosensor CReMS and the output from the CReMS is recorded in FIGS. 1A and 1B. The comparison of the CELx test results and the third party clinical reference is recorded in FIG. 1C. This example illustrates how the CELx test is able to predict the responsiveness that a patient will have to different targeted pathway drugs by using a CReMS to measure the physiological change in a patient's cells continuously over a period of several hours. This example also illustrates how the presence of a genetic biomarker, in this case an overexpressing HER2 gene, is not a sufficient condition to predict efficacy of the drug. […]
Cells from Patient B1 and B4 were utilized. […] Prior to addition to the impedance microplate, the cells were removed from their growth container with versene, counted, and re-suspended in media without serum or other growth factors. […]

[2] = system: Patient C2 colon cancer cells; assay: CELx Combination test, impedance biosensor CReMS; details: Patient C2 cells (printed Patient 2), single drug
Protocol: (§1) A CELx Combination test was performed using cells from two colon cancer patients (Patients C1 and C2), EGF, and a combination of two drugs indicated for colon cancer, Cetuximab and Irinotecan. The physiologic change of the C1 and C2 cells during the test was measured with an impedance biosensor CReMS and the output from the CReMS is recorded in FIGS. 3A and 3B. The comparison of the CELx test result and the third party clinical reference is recorded in FIG. 3C. […] The test also illustrates how the CELx test operates with colon cancer cells, in addition to breast cancer cells.
(§2) The CReMS, microplate, reagents, and buffers used in Examples 1 and 2 are the same as those employed in Example 3, except for the therapeutic agent used. In Example 3, two therapeutic agents, cetuximab and irinotecan, were tested. Irinotecan was purchased from Selleck Chemicals (TX, USA) and cetuximab was obtained from a clinical dispensary.
(§3) Between 6,000-12,000 cells in each well were seeded into the impedance microplate containing 120 uL settling media with serum. The solution was replaced with media containing no serum to synchronize the cells with respect to physiologic state. Twenty microliters each of irinotecan and cetuximab was added to one set each of the C1 and C2 cells; another control set of C1 and C2 cells received no drugs. […]

[3] = system: Patient C1 colon cancer cells; assay: CELx Combination test, impedance biosensor CReMS; details: single drug
Protocol: as §1, §2, §3

Substance	change (decrease) of cell index of the test cells after drug added [1]	responsiveness to each individual drug [2]	physiologic change in patient's cells by the individual drug [3]
Trastuzumab	less than 5%	–	–
Cetuximab	–	responsive	did not cause a physiologic change
